# According to patent publication US11084781B2, “Diarylureas as CB1 allosteric modulators” (Research Triangle Institute, priority 2017, dated 2021):
# Sequences of proteins named here, by UniProt entry; tags and fusion partners are left off.
# UniProt P21554, whole entry: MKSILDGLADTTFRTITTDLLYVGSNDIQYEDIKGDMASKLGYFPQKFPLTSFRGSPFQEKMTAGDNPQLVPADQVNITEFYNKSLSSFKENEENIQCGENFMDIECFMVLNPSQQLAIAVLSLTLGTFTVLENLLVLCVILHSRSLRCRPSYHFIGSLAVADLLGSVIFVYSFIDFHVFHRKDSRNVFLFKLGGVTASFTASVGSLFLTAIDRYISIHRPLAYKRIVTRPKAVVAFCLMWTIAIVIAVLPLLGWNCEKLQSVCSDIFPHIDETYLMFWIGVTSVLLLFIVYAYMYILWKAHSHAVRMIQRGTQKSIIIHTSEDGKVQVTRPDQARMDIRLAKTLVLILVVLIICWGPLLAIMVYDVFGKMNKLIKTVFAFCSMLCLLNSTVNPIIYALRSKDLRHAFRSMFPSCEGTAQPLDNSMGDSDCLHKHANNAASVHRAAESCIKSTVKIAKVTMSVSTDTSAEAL
# Biological target: T1, human CB1 receptor (Homo sapiens, UniProt P21554)
# T1 construct: host or cells: CHO-RD-HGA16 cells (CHO cells overexpressing promiscuous Galpha16)
# Test: CB1 calcium mobilization assay (antagonist mode, against EC80 of CP55,940)
# Type: cell-based
# Details: Table 1; against EC80 (100 nM) of CP55,940; mean ± S.E.M.
row,Structure (SMILES),IC50
1,"Cc1cccc(-c2cccc(NC(=O)Nc3ccc(Cl)cc3)c2)c1 [Compound 27, 3-(4-Chlorophenyl)-1-[3-(3-methylphenyl)phenyl]urea]",74 ± 6 nM
2,"Cc1ccnc(-c2cccc(NC(=O)Nc3ccc(Cl)cc3)c2)c1 [Compound 16, 3-(4-Chlorophenyl)-1-[3-(4-methylpyridin-2-yl)phenyl]urea]",1310 ± 80 nM
3,"O=C(Nc1ccc(Cl)cc1)Nc1cccc(-c2ccc3ccccc3n2)c1 [Compound 43, 3-(4-Chlorophenyl)-1-[3-(quinolin-2-yl)phenyl]urea]",334 ± 80 nM
4,"O=C(Nc1ccc(Cl)cc1)Nc1cccc(-c2ccc(C(=O)c3ccccc3)cc2)c1 [Compound 40, 3-(4-Chlorophenyl)-1-[3-(4-benzoylphenyl)phenyl]urea]",1570 ± 60 nM
5,"O=C(Nc1ccc(Cl)cc1)Nc1cccc(-c2ccc3ccccc3c2)c1 [Compound 42, 3-(4-Chlorophenyl)-1-[3-(naphthalen-2-yl)phenyl]urea]",132 ± 28 nM
